Measurements reported in PubChem BioAssay (Tox21).
The entries are a selection whose mix differs from that of the whole data set. Results filed as inconclusive are left out. Active and inactive are the calls of the source. Unless noted, calls follow the shape of the dose curve; as a rule, active = well fitted curve in the direction sought with a large enough effect in the repeat runs; inconclusive = weak or mixed curves; inactive = no such curve, though single readings can be large; an effect the other way counts as inactive or inconclusive.

Chains of the proteins cited; added tags and fusions are not shown.
UniProt P10275, whole entry: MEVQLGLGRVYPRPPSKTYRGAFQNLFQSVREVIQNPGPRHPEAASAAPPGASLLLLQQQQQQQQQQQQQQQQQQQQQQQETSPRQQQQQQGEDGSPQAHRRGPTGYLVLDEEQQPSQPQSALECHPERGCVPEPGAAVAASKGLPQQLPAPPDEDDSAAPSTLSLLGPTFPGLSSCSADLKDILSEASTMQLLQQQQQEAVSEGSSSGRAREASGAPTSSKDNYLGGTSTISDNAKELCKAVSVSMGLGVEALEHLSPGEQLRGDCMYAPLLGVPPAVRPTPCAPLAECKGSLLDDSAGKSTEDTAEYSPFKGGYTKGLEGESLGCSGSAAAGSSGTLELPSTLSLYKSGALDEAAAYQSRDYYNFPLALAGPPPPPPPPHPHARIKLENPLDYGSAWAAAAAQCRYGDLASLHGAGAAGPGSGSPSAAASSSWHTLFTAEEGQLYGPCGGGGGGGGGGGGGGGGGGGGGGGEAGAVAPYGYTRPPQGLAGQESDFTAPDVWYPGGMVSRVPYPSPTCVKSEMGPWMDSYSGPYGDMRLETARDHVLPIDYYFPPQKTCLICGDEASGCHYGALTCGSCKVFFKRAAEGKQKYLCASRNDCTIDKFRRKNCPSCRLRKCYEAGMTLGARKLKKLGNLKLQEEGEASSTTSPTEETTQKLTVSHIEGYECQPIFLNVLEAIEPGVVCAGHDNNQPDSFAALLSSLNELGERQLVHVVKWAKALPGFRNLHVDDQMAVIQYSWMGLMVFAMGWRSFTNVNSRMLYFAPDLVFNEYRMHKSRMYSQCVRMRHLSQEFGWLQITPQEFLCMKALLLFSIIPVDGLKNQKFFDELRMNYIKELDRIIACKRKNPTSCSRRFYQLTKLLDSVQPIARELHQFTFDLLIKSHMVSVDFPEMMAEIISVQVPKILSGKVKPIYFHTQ
UniProt P03372, whole entry: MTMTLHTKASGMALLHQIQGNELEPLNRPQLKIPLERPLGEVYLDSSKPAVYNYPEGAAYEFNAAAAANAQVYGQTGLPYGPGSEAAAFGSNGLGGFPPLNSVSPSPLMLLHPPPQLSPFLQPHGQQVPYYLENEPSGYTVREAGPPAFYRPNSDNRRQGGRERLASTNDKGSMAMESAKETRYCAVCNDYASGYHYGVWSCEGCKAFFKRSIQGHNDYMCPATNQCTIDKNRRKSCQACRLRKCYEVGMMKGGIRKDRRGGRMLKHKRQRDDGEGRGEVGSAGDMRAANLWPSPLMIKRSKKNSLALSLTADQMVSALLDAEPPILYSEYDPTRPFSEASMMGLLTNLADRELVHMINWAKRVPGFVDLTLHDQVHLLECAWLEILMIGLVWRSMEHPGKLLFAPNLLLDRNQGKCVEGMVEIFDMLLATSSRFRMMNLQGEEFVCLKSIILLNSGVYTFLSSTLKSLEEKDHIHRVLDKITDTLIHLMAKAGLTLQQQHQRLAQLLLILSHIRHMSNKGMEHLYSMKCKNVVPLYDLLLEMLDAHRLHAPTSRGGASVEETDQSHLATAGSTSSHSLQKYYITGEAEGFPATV
UniProt O75469, whole entry: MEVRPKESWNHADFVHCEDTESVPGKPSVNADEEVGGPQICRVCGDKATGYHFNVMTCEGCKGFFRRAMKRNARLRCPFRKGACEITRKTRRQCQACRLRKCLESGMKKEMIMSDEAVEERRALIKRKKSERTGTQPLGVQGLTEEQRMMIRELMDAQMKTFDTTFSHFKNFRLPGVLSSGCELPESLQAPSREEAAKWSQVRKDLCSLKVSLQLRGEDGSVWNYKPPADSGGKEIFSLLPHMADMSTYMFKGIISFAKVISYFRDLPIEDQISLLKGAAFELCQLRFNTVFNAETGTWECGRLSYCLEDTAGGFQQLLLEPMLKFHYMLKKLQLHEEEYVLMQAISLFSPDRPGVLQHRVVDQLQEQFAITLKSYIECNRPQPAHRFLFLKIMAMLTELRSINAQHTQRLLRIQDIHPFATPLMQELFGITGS

Assays:
[1] = target: Androgen receptor (Homo sapiens) (UniProt P10275); test: qHTS assay to identify small molecule antagonists of the androgen receptor (AR) signaling pathway using the MDA cell line (AID 743042; also: potency is read from the fitted curve at half-maximal effect; nearly all actives have a fitted effect of over 55% in size); conditions: MDA-kb2 AR-luc, MMTV luciferase, R1881 antagonist, 16 h
[2] = qHTS assay to identify small molecule antagonists of the thyroid receptor (TR) signaling pathway - cell viability counter screen (AID 743064); conditions: GH3.TRE-Luc viability, CellTiter-Fluor, 24 h; also: potency is read from the fitted curve at half-maximal effect; nearly all actives have a fitted effect of over 50% in size
How it was run: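 GH3.TRE-Luc rat pituitary cells carrying a TRE-luciferase reporter were treated with compound plus 1 nM T3 (final) for 23.5 h at 37 °C. Viability was then read in the same wells by CellTiter-Fluor fluorescence after a further 30 min.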

[3] = qHTS assay to identify small molecule antagonists of the estrogen receptor alpha (ER-alpha) signaling pathway using the BG1 cell line - cell viability counter screen (AID 743081); conditions: BG1Luc4E2 viability, CellTiter-Fluor, 22 h; series mostly up to 32.5 µM;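 also: compound given together with 17beta-estradiol as the ER stimulus; potency is read from the fitted curve at half-maximal effect; nearly all actives have a fitted effect of over 45% in size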
[4] = qHTS assay for small molecule agonists of the p53 signaling pathway - cell viability (AID 651633; calls by dose curve;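 also: p53RE-bla HCT reporter cells with a stable beta-lactamase p53 reporter; % is scaled to controls: 0 for no effect and ±100 for the full control effect; nearly all actives have a fitted effect of over 30% in size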); conditions: p53RE-bla HCT-116 viability, ATP luminescence, 16 h; series mostly up to 95.3 µM
How it was run: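 p53RE-bla cells, seeded at 4,000 per well and rested 5 h at 37 C/5% CO2, received compounds in DMSO for 16 h at 37 C. CellTiter-Glo was then added, and luminescence was read after 30 min at room temperature to gauge cytotoxicity.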

[5] = qHTS assay to identify small molecule antagonists of the glucocorticoid receptor (GR) signaling pathway - cell viability counter screen (AID 720693); conditions: GR-bla HeLa viability, CellTiter-Glo luminescence, 18 h, with 5 nM dexamethasone present; series mostly up to 58.5 µM; also: % is scaled to controls: 0 for no effect and ±100 for the full control effect; nearly all actives have a fitted effect of over 55% in size
Description: National Center for Advancing Translational Sciences [NCATS]
NIH Chemical Genomics Center [NCGC]
U.S. Environmental Protection Agency [EPA]
National Institutes of Environmental Health Sciences [NIEHS]
National Toxicology Program [NTP]
U.S. Food and Drug Administration [FDA]
The Glucocorticoid receptor (GR) is one of the members of the nuclear receptor family of ligand-dependent transcription factors. GR plays a critical role in carbohydrate, protein and lipid metabolisms and programmed cell death. CellSensor GR-bla HeLa cell line (Invitrogen) contains a beta-lactamase reporter gene under the control of the glucocorticoid response element stably integrated into HeLa cells, a cervical cancer cell line that expresses glucocorticoid receptor. The activation of the reporter gene under culture conditions can be detected by fluorescence intensity. This cell line has been used to screen the Tox21 10K compound library and to identify the compounds that inhibit the GR signaling. The cytotoxicity of the Tox21 compound library against the GR-bla HeLa cell line was tested in parallel by measuring the cell viability using CellTiter-Glo assay in the same wells.
Tox21 Assay Protocol Summary:
The GR-bla HeLa cells were dispensed at 1500 cells/5 ul/well in 1536-well black wall/clear bottom plates using a Multidrop Combi (ThermoFisher Scientific, Waltham, MA) dispenser. After the assay plates were incubated at a 37 C/5% CO2 incubator for 4 hours, 23 nL of compounds dissolved in DMSO, positive controls or DMSO only was transferred to the assay plate by a pintool station (Kalypsys, San Diego, CA), followed by addition of 1 uL of dexamethasone (5 nM, final concentration in the well). The plates were incubated at 37 C for 18 hours. After 1 uL of LiveBLAzerTM B/G FRET substrate was added using a Flying Reagent Dispenser (Aurora Discovery, San Diego, CA), the plates were incubated at room temperature (RT) for 2 hours, and fluorescence intensity was measured by an Envision plate reader (PerkinElmer, Shelton, CT). […] The luminescence was measured using a ViewLux (Perkin Elmer) plate reader.

[6] = A CellTox Green Cytotoxicity Assay to monitor cytotoxicity in HEK293 cells - 0 hour (AID 1224869); conditions: CellTox Green fluorescence; at 76.8 µM (top of the series); also: % is scaled to controls: 0 for no effect and ±100 for the full control effect; nearly all actives have a fitted effect of over 50% in size
How it was run: (§1)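 Seeding of HEK293 cells together with cytotoxicity dye preceded a 5 h incubation at 37 C/5% CO2. Test compounds in DMSO were then added and fluorescence monitored across 40 h.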

[7] = qHTS RealTime-Glo MT Cell Viability Assay in HepG2 cells - 8 hour (AID 1224873); conditions: RealTime-Glo luminescence; series mostly up to 76.8 µM; also: % is scaled to controls: 0 for no effect and ±100 for the full control effect; nearly all actives have a fitted effect of over 55% in size
How it was run: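 HepG2 cells mixed with RealTime-Glo MT reagents (NanoLuc plus cell-permeant prosubstrate) were seeded at 600 cells/well, incubated 5 h at 37 C/5% CO2, then pinned with compounds in DMSO; nonlytic luminescence tracked viability during 40 h treatment.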

[8] = A CellTox Green Cytotoxicity Assay to monitor cytotoxicity in HEK293 cells - 8 hour (AID 1224884); conditions: CellTox Green fluorescence; series mostly up to 76.8 µM; also: % is scaled to controls: 0 for no effect and ±100 for the full control effect; nearly all actives have a fitted effect of over 35% in size
How it was run: as §1

[9] = target: Estrogen receptor (Homo sapiens) (UniProt P03372); test: qHTS assay to identify small molecule agonists of the estrogen receptor alpha (ER-alpha) signaling pathway (AID 743075; calls by dose curve;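 also: HEK293 GripTite cells with ER-alpha and UAS-driven beta-lactamase reporter; % is scaled to controls: 0 for no effect and ±100 for the full control effect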); conditions: HEK293 ER-alpha-UAS-bla, beta-lactamase FRET ratio, 18 h; at 70.1 µM (top of the series)
[10] = qHTS assay to identify small molecule agonists of the vitamin D receptor (VDR) signaling pathway - cell viability counter screen (AID 743224); conditions: VDR-bla HEK293T viability, CellTiter-Glo luminescence, 16 h; series mostly up to 62.6 µM; also: % is scaled to controls: 0 for no effect and ±100 for the full control effect; nearly all actives have a fitted effect of over 50% in size
How it was run: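 Here cell health was gauged by luminescent ATP detection (CellTiter-Glo, 30 min RT) in VDR-bla cells that had been incubated with test compounds for 16 h at 37C and 5% CO2.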

[11] = qHTS assay to identify small molecule agonists of the constitutive androstane receptor (CAR) signaling pathway - cell viability counter screen (AID 1224836); conditions: HepG2-CYP2B6-hCAR viability, CellTiter-Fluor, 23 h, PK11195 added to every well; series mostly up to 92.4 µM; also: % is scaled to controls: 0 for no effect and ±100 for the full control effect; nearly all actives have a fitted effect of over 45% in size
How it was run: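 HepG2 cells stably carrying hCAR and a CYP2B6-2.2kb reporter were plated 4 h, then given compounds at 15 concentrations plus PK11195 (final 0.75 uM). After 23 h at 37 C, viability was read by CellTiter-Fluor fluorescence.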

[12] = qHTS RealTime-Glo MT Cell Viability Assay in HepG2 cells - 24 hour (AID 1224867); conditions: RealTime-Glo luminescence; series mostly up to 76.8 µM; also: % is scaled to controls: 0 for no effect and ±100 for the full control effect; nearly all actives have a fitted effect of over 50% in size
How it was run: (§2)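 HepG2 cells were seeded at 600 cells/well together with NanoLuc luciferase and a cell-permeant prosubstrate, preincubated 5 h at 37 C/5% CO2, then pin-dosed with compounds in DMSO. Nonlytic luminescence from viable cells was read at each time point.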

[13] = qHTS RealTime-Glo MT Cell Viability Assay in HepG2 cells - 16 hour (AID 1224885); conditions: RealTime-Glo luminescence; series mostly up to 76.8 µM
How it was run: as §2

[14] = qHTS assay to identify small molecule HDAC inhibitors - cell viability counter screen (AID 1259365); conditions: HCT-116 viability, CellTiter-Glo ATP luminescence, 2 h; series mostly up to 92.4 µM
How it was run: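 Wild-type HCT-116 cells were seeded at 1,500 per well, incubated overnight at 37 C, then exposed to compounds in DMSO for 2hr. Viability was read by CellTiter-Glo luminescence after 30min at room temperature.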

[15] = qHTS assay to identify small molecule antagonists of the sonic hedgehog signaling (Shh) pathway (AID 1259369; calls by dose curve; also: potency is read from the fitted curve at half-maximal effect; nearly all actives have a fitted effect of over 45% in size); conditions: NIH/3T3 Gli1-Luc reporter, Shh antagonist, luminescence 24 h
How it was run: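 Conditioned medium drives Shh signalling in 3T3Gli1-Luc cells; compounds in DMSO co-applied, 24hr at 37 C, then luciferase luminescence.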

[16] = Caspase-3/7 induction in CHO-K1 cells by small molecules, qHTS cell viability counter screen (AID 1346979); conditions: CellTiter-Fluor fluorescence, 17 h; series mostly up to 92.4 µM; also: % is scaled to controls: 0 for no effect and ±100 for the full control effect; nearly all actives have a fitted effect of over 35% in size
How it was run: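 Wild-type CHO-K1 cells were seeded at 1,500 per well, rested 5hr at 37 C, then exposed to compounds in DMSO. After 16hr, CellTiter-Fluor reagent was added and fluorescence read 1hr later as the viability measure.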

[17] = Caspase-3/7 induction in HepG2 cells by small molecules, qHTS cell viability counter screen (AID 1346981); conditions: CellTiter-Fluor fluorescence, 17 h; also: potency is read from the fitted curve at half-maximal effect; nearly all actives have a fitted effect of over 30% in size
How it was run: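 Multiplexed with the caspase-3/7 assay: HepG2 cells, 16 hr compound treatment, CellTiter-Fluor viability detection by fluorescence.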

[18] = target: Nuclear receptor subfamily 1 group I member 2 (Homo sapiens) (UniProt O75469); test: Human pregnane X receptor (PXR) small molecule agonists, qHTS assay (AID 1346982); conditions: PXR-Luc HepG2, CYP3A4 luciferase reporter, 24 h; also: potency is read from the fitted curve at half-maximal effect; nearly all actives have a fitted effect of over 35% in size
How it was run: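 We seeded PXR-Luc HepG2 cells in assay medium containing 5% charcoal-stripped FBS, added compounds 5 hr later, incubated 24 hr, and read luminescence with ONE-Glo reagent.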

CN(C(=O)Cc1ccc(Cl)c(Cl)c1)[C@H]1CC[C@@]2(CCCO2)C[C@@H]1N1CCCC1
active: Potency [1] 26.6 µM | Potency [2] 26.6 µM | Potency [3] 26.6 µM

[NH4+].[O-][Cl+3]([O-])([O-])[O-]
inactive: Potency [4] | Potency [5] | cytotoxicity [6] 1.74% | Potency [7] | Potency [8]

Cc1ccc([N+](=O)[O-])cc1[N+](=O)[O-]
inactive: activation [9] -1.89% | Potency [10] | Potency [11] | Potency [12] | Potency [13] | Potency [16]
active: Potency [14] 26.9 µM | Potency [15] 6.76 µM | Potency [17] 26.9 µM | Potency [18] 15.1 µM
